Laboratory results published in patent US20090099157A1, “TETRAHYDRO-PYRAZOLO-PYRIDINE THIOETHER MODULATORS OF CATHEPSIN S” (priority 2007, published 2009).

Sequences of proteins named here, by UniProt entry; tags and fusion partners are left off. Residues count along the entry.
UniProt P25774, 115-331: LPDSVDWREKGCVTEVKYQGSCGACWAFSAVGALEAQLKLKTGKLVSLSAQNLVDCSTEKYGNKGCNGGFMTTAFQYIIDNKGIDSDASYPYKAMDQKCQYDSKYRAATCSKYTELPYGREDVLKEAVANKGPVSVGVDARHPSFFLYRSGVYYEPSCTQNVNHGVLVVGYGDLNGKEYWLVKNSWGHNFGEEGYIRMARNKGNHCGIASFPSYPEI

Target: Recombinant human cathepsin S (CatS) (Homo sapiens, UniProt P25774)
Experiment: biochemical

Row | Structure (SMILES) | IC50
1 | OC(CN1CCCCC1)Cn1nc(-c2ccc(C(F)(F)F)c(SCCN3CCCCC3)c2)c2c1CCNC2 (centres unmarked) [Example 289, 1-Piperidin-1-yl-3-(3-{3-[(2-piperidin-1-ylethyl)sulfanyl]-4-(trifluoromethyl)phenyl}-4,5,6,7-tetrahydro-1H-pyrazolo[4,3-c]pyridin-1-yl)propan-2-ol] | 9570 nM
2 | CS(=O)(=O)N1CCc2c(c(-c3ccc(C(F)(F)F)c(SCCNC(=O)Cc4ccccc4)c3)nn2CC(O)CN2CCC(N3CCCC3=O)CC2)C1 (centres unmarked) [Example 115, N-{2-[5-(1-{2-Hydroxy-3-[4-(2-oxo-pyrrolidin-1-yl)-piperidin-1-yl]-propyl}-5-methanesulfonyl-4,5,6,7-tetrahydro-1H-pyrazolo[4,3-c]pyridin-3-yl)-2-trifluoromethyl-phenylsulfanyl]-ethyl}-2-phenyl-acetamide] | 130 nM
3 | CS(=O)(=O)N1CCc2c(c(-c3ccc(C(F)(F)F)c(SCCN4CC[C@H](F)C4)c3)nn2C[C@@H](O)CN2CCC(c3ccccn3)CC2)C1 [Example 286] | 40 nM
4 | CS(=O)(=O)N1CCc2c(c(-c3ccc(C(F)(F)F)c(SCC(=O)N4CC=CCC4)c3)nn2CCCN2CCC(N3CCCC3=O)CC2)C1 [Example 97, 1-{1-[3-(3-{3-[2-(3,6-Dihydro-2H-pyridin-1-yl)-2-oxo-ethylsulfanyl]-4-trifluoromethyl-phenyl}-5-methanesulfonyl-4,5,6,7-tetrahydro-pyrazolo[4,3-c]pyridin-1-yl)-propyl]-piperidin-4-yl}-pyrrolidin-2-one] | 130 nM
5 | CS(=O)(=O)N1CCc2c(c(-c3ccc(C(F)(F)F)c(SCCNC4CCCC4)c3)nn2CCCN2CCC(N3CCCC3=O)CC2)C1 [Example 23, 1-[1-(3-{3-[3-(2-Cyclopentylamino-ethylsulfanyl)-4-trifluoromethyl-phenyl]-5-methanesulfonyl-4,5,6,7-tetrahydro-pyrazolo[4,3-c]pyridin-1-yl}-propyl)-piperidin-4-yl]-pyrrolidin-2-one] | 270 nM
6 | CCN1CCc2c(c(-c3ccc(C(F)(F)F)c(SCC(=O)N4CCCC4)c3)nn2CC(O)CN2CCN(c3ccc(F)cc3)CC2)C1 (centres unmarked) [Example 556, 1-(5-Ethyl-3-{3-[(2-oxo-2-pyrrolidin-1-ylethyl)sulfanyl]-4-(trifluoromethyl)phenyl}-4,5,6,7-tetrahydro-1H-pyrazolo[4,3-c]pyridin-1-yl)-3-[4-(4-fluorophenyl)piperazin-1-yl]propan-2-ol] | 1250 nM
7 | CS(=O)(=O)N1CCc2c(c(-c3ccc(C(F)(F)F)c(SCCNC(=O)Cc4ccc(F)cc4)c3)nn2CC(O)CN2CCC(N3CCCC3=O)CC2)C1 (centres unmarked) [Example 121, 2-(4-Fluoro-phenyl)-N-{2-[5-(1-{2-hydroxy-3-[4-(2-oxo-pyrrolidin-1-yl)-piperidin-1-yl]-propyl}-5-methanesulfonyl-4,5,6,7-tetrahydro-1H-pyrazolo[4,3-c]pyridin-3-yl)-2-trifluoromethyl-phenylsulfanyl]-ethyl}-acetamide] | 280 nM
8 | CS(=O)(=O)NC1CCN(CC(O)Cn2nc(-c3ccc(C(F)(F)F)c(SCCN4CCC(F)(F)C4)c3)c3c2CCN(C(=O)CO)C3)CC1 (centres unmarked) [Example 727, N-[1-(3-{3-[3-{[2-(3,3-Difluoropyrrolidin-1-yl)ethyl]sulfanyl}-4-(trifluoromethyl)phenyl]-5-(hydroxyacetyl)-4,5,6,7-tetrahydro-1H-pyrazolo[4,3-c]pyridin-1-yl}-2-hydroxypropyl)piperidin-4-yl]methanesulfonamide] | 50 nM
9 | CC1(C)CCN(CC(O)Cn2nc(-c3ccc(C(F)(F)F)c(SCCNS(C)(=O)=O)c3)c3c2CCN(S(C)(=O)=O)C3)CC1 (centres unmarked) [Example 516, N-(2-{[5-{1-[3-(4,4-Dimethylpiperidin-1-yl)-2-hydroxypropyl]-5-(methylsulfonyl)-4,5,6,7-tetrahydro-1H-pyrazolo[4,3-c]pyridin-3-yl}-2-(trifluoromethyl)phenyl]sulfanyl}ethyl)methanesulfonamide] | 360 nM
10 | OC(CN1CCC(c2ccncc2)CC1)Cn1nc(-c2ccc(C(F)(F)F)c(SCCN3CCCCC3)c2)c2c1CCNC2 (centres unmarked) [Example 343, 1-(3-{3-[(2-Piperidin-1-ylethyl)sulfanyl]-4-(trifluoromethyl)phenyl}-4,5,6,7-tetrahydro-1H-pyrazolo[4,3-c]pyridin-1-yl)-3-(4-pyridin-4-ylpiperidin-1-yl)propan-2-ol] | 660 nM
11 | Oc1ccccc1N1CCN(CC(O)Cn2nc(-c3ccc(C(F)(F)F)c(SCCN4CCCCC4)c3)c3c2CCNC3)CC1 (centres unmarked) [Example 385, 2-{4-[2-Hydroxy-3-(3-{3-[(2-piperidin-1-ylethyl)sulfanyl]-4-(trifluoromethyl)phenyl}-4,5,6,7-tetrahydro-1H-pyrazolo[4,3-c]pyridin-1-yl)propyl]piperazin-1-yl}phenol] | 350 nM
12 | CC1C(=O)NCCN1CCSc1cc(-c2nn(CC(O)CN3CCC(NS(C)(=O)=O)CC3)c3c2CN(S(C)(=O)=O)CC3)ccc1C(F)(F)F (centres unmarked) [Example 832, N-[1-(2-Hydroxy-3-{3-[3-{[2-(2-methyl-3-oxopiperazin-1-yl)ethyl]sulfanyl}-4-(trifluoromethyl)phenyl]-5-(methylsulfonyl)-4,5,6,7-tetrahydro-1H-pyrazolo[4,3-c]pyridin-1-yl}propyl)piperidin-4-yl]methanesulfonamide] | 320 nM

More lines, now with the values ahead:

Row | IC50 | Structure (SMILES)
13 | 430 nM | CC(=O)NCC1CCN(CC(O)Cn2nc(-c3ccc(C(F)(F)F)c(SCCN4CCOCC4)c3)c3c2CCN(S(C)(=O)=O)C3)CC1 (centres unmarked) [Example 650, N-[(1-{2-Hydroxy-3-[5-(methylsulfonyl)-3-{3-[(2-morpholin-4-ylethyl)sulfanyl]-4-(trifluoromethyl)phenyl}-4,5,6,7-tetrahydro-1H-pyrazolo[4,3-c]pyridin-1-yl]propyl}piperidin-4-yl)methyl]acetamide]
14 | 30 nM | CS(=O)(=O)N1CCc2c(c(-c3ccc(C(F)(F)F)c(SCC(=O)N4CCCC4)c3)nn2CC(O)CN2CCC(C(=O)N3CCCC3)CC2)C1 (centres unmarked) [Example 257, 1-[5-(Methylsulfonyl)-3-{3-[(2-oxo-2-pyrrolidin-1-ylethyl)sulfanyl]-4-(trifluoromethyl)phenyl}-4,5,6,7-tetrahydro-1H-pyrazolo[4,3-c]pyridin-1-yl]-3-[4-(pyrrolidin-1-ylcarbonyl)piperidin-1-yl]propan-2-ol]
15 | 550 nM | CS(=O)(=O)N1CCc2c(c(-c3ccc(C(F)(F)F)c(SCCN4CCC(F)CC4)c3)nn2CC(O)CN2CCC[C@H]2CO)C1 (stereo partly drawn) [Example 491, 1-{3-[3-{[2-(4-Fluoropiperidin-1-yl)ethyl]sulfanyl}-4-(trifluoromethyl)phenyl]-5-(methylsulfonyl)-4,5,6,7-tetrahydro-1H-pyrazolo[4,3-c]pyridin-1-yl}-3-[(2S)-2-(hydroxymethyl)pyrrolidin-1-yl]propan-2-ol]
16 | 20 nM | CS(=O)(=O)N1CCc2c(c(-c3ccc(C(F)(F)F)c(SCCN4CCCCC4)c3)nn2CC(O)CN2CCN(c3ccccc3F)CC2)C1 (centres unmarked) [Example 733, 1-[4-(2-Fluorophenyl)piperazin-1-yl]-3-[5-(methylsulfonyl)-3-{3-[(2-piperidin-1-ylethyl)sulfanyl]-4-(trifluoromethyl)phenyl}-4,5,6,7-tetrahydro-1H-pyrazolo[4,3-c]pyridin-1-yl]propan-2-ol]
17 | 550 nM | CS(=O)(=O)N1CCc2c(c(-c3ccc(C(F)(F)F)c(SCCN4CCCC(CO)C4)c3)nn2CC(O)CN2CCC(N3CCCC3)CC2)C1 (centres unmarked) [Example 755, 1-{3-[3-({2-[3-(Hydroxymethyl)piperidin-1-yl]ethyl}sulfanyl)-4-(trifluoromethyl)phenyl]-5-(methylsulfonyl)-4,5,6,7-tetrahydro-1H-pyrazolo[4,3-c]pyridin-1-yl}-3-(4-pyrrolidin-1-ylpiperidin-1-yl)propan-2-ol]
18 | 280 nM | CS(=O)(=O)N1CCc2c(c(-c3ccc(C(F)(F)F)c(SCCN4CCC(F)CC4)c3)nn2CC(O)CN2CCC(N3CCCC3)CC2)C1 (centres unmarked) [Example 692, 1-{3-[3-{[2-(4-Fluoropiperidin-1-yl)ethyl]sulfanyl}-4-(trifluoromethyl)phenyl]-5-(methylsulfonyl)-4,5,6,7-tetrahydro-1H-pyrazolo[4,3-c]pyridin-1-yl}-3-(4-pyrrolidin-1-ylpiperidin-1-yl)propan-2-ol]
19 | 70 nM | CS(=O)(=O)N1CCc2c(c(-c3ccc(C(F)(F)F)c(SCCN4CC[C@H](F)C4)c3)nn2C[C@@H](O)CN2CCC(C3CCCCC3)CC2)C1 [Example 284]
20 | 35 nM | CS(=O)(=O)N1CCc2c(c(-c3ccc(C(F)(F)F)c(SCCN4CCC(F)CC4)c3)nn2C[C@H](O)CN2CCN(c3cccc(O)c3)CC2)C1 [Example 793, 3-{4-[(2R)-3-{3-[3-{[2-(4-Fluoropiperidin-1-yl)ethyl]sulfanyl}-4-(trifluoromethyl)phenyl]-5-(methylsulfonyl)-4,5,6,7-tetrahydro-1H-pyrazolo[4,3-c]pyridin-1-yl}-2-hydroxypropyl]piperazin-1-yl}phenol]
21 | 1430 nM | CS(=O)(=O)N1CCc2c(c(-c3ccc(C(F)(F)F)c(SCCN4CCCC(F)C4)c3)nn2C[C@@H](O)CN2C=NCCC2)C1 (stereo partly drawn) [Example 395, (2S)-1-(5,6-Dihydropyrimidin-1(4H)-yl)-3-{3-[3-{[2-(3-fluoropiperidin-1-yl)ethyl]sulfanyl}-4-(trifluoromethyl)phenyl]-5-(methylsulfonyl)-4,5,6,7-tetrahydro-1H-pyrazolo[4,3-c]pyridin-1-yl}propan-2-ol]
22 | 280 nM | CS(=O)(=O)N1CCc2c(c(-c3ccc(C(F)(F)F)c(SCCN4CC[C@H](F)C4)c3)nn2C[C@@H](O)CN2CCC(N3C[C@@H](O)CC3=O)CC2)C1 [Example 766, (4S)-1-{1-[(2S)-3-{3-[3-({2-[(3S)-3-Fluoropyrrolidin-1-yl]ethyl}sulfanyl)-4-(trifluoromethyl)phenyl]-5-(methylsulfonyl)-4,5,6,7-tetrahydro-1H-pyrazolo[4,3-c]pyridin-1-yl}-2-hydroxypropyl]piperidin-4-yl}-4-hydroxypyrrolidin-2-one]
23 | 570 nM | CS(=O)(=O)N1CCc2c(c(-c3ccc(C(F)(F)F)c(SCCN4CCCC4)c3)nn2CC(O)CN2CCN(C3CC3)CC2)C1 (centres unmarked) [Example 438, 1-(4-Cyclopropylpiperazin-1-yl)-3-[5-(methylsulfonyl)-3-{3-[(2-pyrrolidin-1-ylethyl)sulfanyl]-4-(trifluoromethyl)phenyl}-4,5,6,7-tetrahydro-1H-pyrazolo[4,3-c]pyridin-1-yl]propan-2-ol]
